The structures appear in SMILES notation.

Chains of the proteins cited; added tags and fusions are not shown.
UniProt P41148, whole entry: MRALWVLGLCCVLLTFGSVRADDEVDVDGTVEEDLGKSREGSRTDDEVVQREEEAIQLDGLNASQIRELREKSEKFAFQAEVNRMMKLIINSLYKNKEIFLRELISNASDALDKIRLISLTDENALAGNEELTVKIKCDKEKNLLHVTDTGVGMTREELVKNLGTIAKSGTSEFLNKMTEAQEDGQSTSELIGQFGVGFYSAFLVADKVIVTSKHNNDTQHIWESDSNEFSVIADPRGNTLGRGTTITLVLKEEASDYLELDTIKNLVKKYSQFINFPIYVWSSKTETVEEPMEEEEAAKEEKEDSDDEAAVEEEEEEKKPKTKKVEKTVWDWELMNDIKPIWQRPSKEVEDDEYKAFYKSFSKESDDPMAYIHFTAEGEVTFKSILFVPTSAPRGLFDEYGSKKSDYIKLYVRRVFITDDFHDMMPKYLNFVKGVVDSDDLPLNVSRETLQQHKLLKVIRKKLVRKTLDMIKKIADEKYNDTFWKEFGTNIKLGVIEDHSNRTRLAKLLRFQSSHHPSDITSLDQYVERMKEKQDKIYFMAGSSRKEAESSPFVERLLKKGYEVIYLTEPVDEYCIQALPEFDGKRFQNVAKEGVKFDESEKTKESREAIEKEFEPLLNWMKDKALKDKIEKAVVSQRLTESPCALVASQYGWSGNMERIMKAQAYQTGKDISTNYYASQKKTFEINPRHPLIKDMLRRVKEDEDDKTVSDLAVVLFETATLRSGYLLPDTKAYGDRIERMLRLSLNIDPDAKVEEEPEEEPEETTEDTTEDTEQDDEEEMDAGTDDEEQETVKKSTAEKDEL

This experiment deals with Endoplasmin (Canis lupus familiaris, UniProt P41148). The experiment is described as follows: Displacement of Cy3B-GM from recombinant Grp94 (unknown origin) after 24 hrs by fluorescence polarization assay.

As for `C#CCCCn1c(Sc2cc(C)ccc2C)nc2c(N)ncnc21`, the IC50 was 1.14 µM.

Values taken from ChEMBL document CHEMBL3425404, “Structure-activity relationship in a purine-scaffold compound series with selectivity for the endoplasmic reticulum Hsp90 paralog Grp94” (J Med Chem, 2015).
